Biological target: human MT2 receptor (Homo sapiens, UniProt P49286)
Test: Melatonin receptor binding assay (MT2), 2-[125I]-iodomelatonin
Details: read-out: MT2 IC50; membrane homogenates of NIH-3T3 cells expressing MT2; 2-[125I]-iodomelatonin 0.2 nM; 37° C., 1 hour

The chains behind the UniProt entries cited, without tags or fusion partners.
UniProt P49286, whole entry: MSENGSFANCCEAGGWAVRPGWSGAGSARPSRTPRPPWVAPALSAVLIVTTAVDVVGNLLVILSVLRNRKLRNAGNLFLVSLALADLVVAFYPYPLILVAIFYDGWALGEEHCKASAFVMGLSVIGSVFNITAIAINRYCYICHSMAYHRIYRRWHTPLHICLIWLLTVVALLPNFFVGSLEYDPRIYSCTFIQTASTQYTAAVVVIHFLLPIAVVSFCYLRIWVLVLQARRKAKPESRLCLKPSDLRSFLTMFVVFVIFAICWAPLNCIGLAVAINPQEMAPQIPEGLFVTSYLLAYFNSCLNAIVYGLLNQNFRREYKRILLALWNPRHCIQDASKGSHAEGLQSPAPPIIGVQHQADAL

Row | Compound | IC50
1 | CCC(=O)N1CCc2cc3c(cc2C1CC(c1ccccc1)c1ccccc1)OCO3 (stereo not shown) | 100 to 1000 nM
2 | COC(=O)N1CCc2cc3c(cc2C1CCc1ccc(F)cc1)OCO3 (stereo not shown) | 100 to 1000 nM
3 | CC(=O)N1CCc2c(ccc3c2CCO3)C1CC(c1ccccc1)c1ccccc1 (stereo not shown) | 100 to 1000 nM
4 | O=C(CCl)N1CCc2cc3c(cc2C1CCc1ccc(F)cc1)OCC3 (stereo not shown) | < 100 nM
5 | CCCC(=O)N1CCc2cc3c(cc2C1CCc1ccc(F)cc1)OCC3 (stereo not shown) | < 100 nM
6 | COc1cc2c(cc1OC)C(CCc1cccc3c1CCO3)N(C(C)=O)CC2 (stereo not shown) | < 100 nM
7 | CC(C)(C)CC(=O)N1CCc2cc3c(cc2C1CCc1ccc(F)cc1)OCC3 (stereo not shown) | < 100 nM
8 | COc1cc2c(cc1Br)CCN(C(C)=O)C2CC(c1ccccc1)c1ccccc1 (stereo not shown) [Example 22] | < 100 nM
9 | CC(=O)N1CCc2cc3c(cc2C1CCc1ccc(F)cc1)OCC3 (stereo not shown) | < 100 nM
10 | O=C(C1CC1)N1CCc2cc3c(cc2C1CCc1ccc(F)cc1)OCC3 (stereo not shown) | < 100 nM
11 | O=C(c1ccccc1)N1CCc2cc3c(cc2C1CCc1ccc(F)cc1)OCC3 (stereo not shown) | 100 to 1000 nM
12 | COc1ccc(C(=O)N2CCc3cc4c(cc3C2CCc2ccc(F)cc2)OCC4)cc1 (stereo not shown) | 100 to 1000 nM
13 | COCC(=O)N1CCc2cc3c(cc2C1CCc1ccc(F)cc1)OCC3 (stereo not shown) | < 100 nM
14 | O=C(C1CCCC1)N1CCc2cc3c(cc2C1CCc1ccc(F)cc1)OCC3 (stereo not shown) | 100 to 1000 nM
15 | CCC(=O)N1CCc2cc3c(cc2C1CCc1ccc(F)cc1)OCC3 (stereo not shown) | < 100 nM
16 | O=C(c1ccno1)N1CCc2cc3c(cc2C1CCc1ccc(F)cc1)OCC3 (stereo not shown) | 100 to 1000 nM

— US6908931B2, “Tetrahydroisoquinoline derivatives as melatonin MT2 antagonists” (Bristol-Myers Squibb Company, priority 2003, dated 2005)
